Earlier results in patent US20260096996A1, “PHARMACEUTICAL COMPOSITIONS OF TRETINOIN AND METHODS OF PRODUCING SUCH COMPOSITIONS” (Douglas Pharmaceuticals Limited, priority 2022, published 2026).

Conditions: during 1 week of continuous therapy, on average

plasma tretinoin concentrations relative to day 1 values: one-third
Compound: CC1=C(/C=C/C(C)=C/C=C/C(C)=C/C(=O)O)C(C)(C)CCC1 [tretinoin, all-trans retinoic acid]
